This experiment concerns the target Glutamate NMDA receptor; Grin1/Grin2b (Rattus norvegicus, UniProt P35439+Q00960). In words: Antagonistic activity against N-methyl-D-aspartate glutamate receptor 1/2B. The class given is functional.

Chains of the proteins cited; added tags and fusions are not shown.
UniProt Q00960, whole entry: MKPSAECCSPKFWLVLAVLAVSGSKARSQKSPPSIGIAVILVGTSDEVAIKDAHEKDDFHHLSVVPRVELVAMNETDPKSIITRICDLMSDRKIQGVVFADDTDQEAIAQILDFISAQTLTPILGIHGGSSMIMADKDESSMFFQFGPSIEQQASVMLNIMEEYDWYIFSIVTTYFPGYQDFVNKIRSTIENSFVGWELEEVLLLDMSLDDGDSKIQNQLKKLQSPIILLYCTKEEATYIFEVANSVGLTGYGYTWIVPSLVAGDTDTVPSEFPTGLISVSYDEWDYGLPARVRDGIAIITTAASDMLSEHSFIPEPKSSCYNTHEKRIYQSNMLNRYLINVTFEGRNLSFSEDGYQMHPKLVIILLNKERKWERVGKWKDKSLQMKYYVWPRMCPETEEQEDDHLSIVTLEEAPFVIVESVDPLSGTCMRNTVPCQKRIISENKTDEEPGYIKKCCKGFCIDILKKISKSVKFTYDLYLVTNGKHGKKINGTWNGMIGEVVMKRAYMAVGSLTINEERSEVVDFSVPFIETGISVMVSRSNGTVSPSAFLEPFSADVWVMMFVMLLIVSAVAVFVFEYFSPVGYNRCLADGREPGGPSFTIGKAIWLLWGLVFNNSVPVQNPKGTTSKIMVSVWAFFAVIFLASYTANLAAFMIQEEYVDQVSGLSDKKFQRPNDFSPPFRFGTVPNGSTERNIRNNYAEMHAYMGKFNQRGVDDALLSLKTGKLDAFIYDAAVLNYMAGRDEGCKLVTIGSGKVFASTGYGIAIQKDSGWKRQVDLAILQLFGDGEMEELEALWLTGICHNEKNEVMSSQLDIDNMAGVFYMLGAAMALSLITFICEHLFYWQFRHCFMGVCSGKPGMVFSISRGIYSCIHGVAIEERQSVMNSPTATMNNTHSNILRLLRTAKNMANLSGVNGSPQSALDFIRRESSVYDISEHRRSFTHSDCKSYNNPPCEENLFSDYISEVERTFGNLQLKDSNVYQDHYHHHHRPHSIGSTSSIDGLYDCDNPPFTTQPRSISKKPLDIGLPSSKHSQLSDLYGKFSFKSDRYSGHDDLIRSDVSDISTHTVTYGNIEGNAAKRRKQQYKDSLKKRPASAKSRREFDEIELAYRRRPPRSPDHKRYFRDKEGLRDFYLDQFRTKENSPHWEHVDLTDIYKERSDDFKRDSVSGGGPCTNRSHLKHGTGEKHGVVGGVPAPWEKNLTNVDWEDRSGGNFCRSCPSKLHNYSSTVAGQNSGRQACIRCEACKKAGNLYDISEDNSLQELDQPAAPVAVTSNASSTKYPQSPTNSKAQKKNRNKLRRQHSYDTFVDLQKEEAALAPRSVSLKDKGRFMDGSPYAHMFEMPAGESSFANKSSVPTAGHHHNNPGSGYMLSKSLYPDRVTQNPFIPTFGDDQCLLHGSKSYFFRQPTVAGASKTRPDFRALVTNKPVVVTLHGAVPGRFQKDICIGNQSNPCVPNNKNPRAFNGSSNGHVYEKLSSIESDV

As usually defined, the IC50 is the concentration needed to halve the response being measured. Read a low IC50 as higher potency.

`O=C(/C=C/c1ccc(O)cc1)N1CCC(Cc2ccccc2)CC1`: the IC50 is 120 nM.
